Laboratory results published in US9675652B2, “Compositions and methods to relieve chronic diseases symptoms” (priority 2011, dated 2017).

Tested on: Hep G2.2.15 cells
Experiment: Cell viability by MTT, Hep G2.2.15 cells
Assay type: cell-based, human
Conditions: 5 uM
Protocol: The Hep G2.2.15 cells were seeded at 3×10^4 cells/well into 96-well culture plates and incubated at 37° C. in 5% CO2 overnight. After 3 to 4 days, the confluent cultures were cultured at 37° C. for another 3 to 5 days for HBV surface antigen (HBsAg) and HBV e-antigen (HBeAg) induction. Various concentrations of test articles including the positive control substance were then added during the 72 hrs induction period. The cultured media were harvested by centrifugation and the levels of HBsAg and HBeAg were analyzed with commercial enzyme-linked immunosorbant assay (ELISA) kits for HBsAg qualitative testing (General Biologicals Corp., SURASE B-96 (TMB)) and that for HBeAg qualitative testing (General Biologicals Corp., EASE BN-96 (TMB)), respectively. The activity expressed in terms of the efficiency of antigen secretion in percentage (hereinafter referred to as “relative activity”) was calculated with the equation Relative activity (%)=The ratio of the amount of antigen in the cultured medium with treatment to that without treatment×100.
Cell viability was assayed by the MTT method. Adefovir dipivoxil (ADFV, Patheon Inc., Canada), an antiviral agent, was used as positive control.

CC(C)(C)C(=O)OCOP(=O)(COCCn1cnc2c(N)ncnc21)OCOC(=O)C(C)(C)C [Adefovir, Adefovir dipivoxil]
MTT (+) drug/(−) drug (Ratio), cytotoxicity: 0.975
